# Tested on: noise-induced hearing loss
# Experiment: Auditory brainstem response (ABR) test in noise-induced hearing loss animal model
# Type: in vivo, Balb/c mice
# Settings: 50 mg/kg intraperitoneally once a day for 7 days before 100 dB white noise for 50 minutes; tone bursts 8, 16, 32 kHz; 1 day, 7 days and 14 days after exposure
# Description: In order to exclude mice having congenitally abnormal hearing, a preliminary hearing test was performed on all mice before the experiment. A total of 24 7-week-old male Balb/c mice were subjected to an auditory brainstem response (ABR) test and were divided into an experimental group (12 mice) administered with sarpogrelate (50 mg/kg) before exposure to noise and a control group (12 mice) not administered with sarpogrelate. The sarpogrelate (50 mg/kg) was intraperitoneally administered once a day for 7 days, and the mice were exposed to 100 dB of white noise for 50 minutes after administration, to establish an animal model with noise-induced hearing loss (FIG. 1). 7 days after administration of sarpogrelate (50 mg/kg), an auditory brainstem response (ABR) test was performed to analyze auditory function. The minimum stimulus sound that forms a wave (V) when applying tone bursts of 8 kHz, 16 kHz and 32 kHz using a Tucker-Davis Technologies (TDT) ABR instrument is determined to be a hearing threshold, the hearing of the experimental group administered with sarpogrelate and the control group not administered with sarpogrelate was measured, and the effect of sarpogrelate on prevention of noise-induced hearing loss was comparatively analyzed.
compound,measurement,value
"COc1cccc(CCc2ccccc2OCC(CN(C)C)OC(=O)CCC(=O)O)c1 (stereo not shown) [sarpogrelate, 4-[2-(dimethylamino)-1-({2-[2-(3-methoxyphenyl)ethyl]phenoxy}methyl)ethoxy]-4-oxobutanoic acid]",hearing threshold (ABR) compared to the control group,significantly reduced

# From patent US11376233B2, “Composition, containing sarpogrelate as active ingredient, for preventing or treating sensorineural hearing loss” (AJOU UNIVERSITY INDUSTRY-ACADEMIC COOPERATION FOUNDATION, priority 2017, dated 2022)
